Results reported in patent US20070184519A1 (published 2007).

Tests used:
[1] = target: HLA-DR DRB1*1302 (human); test: competition with 125I probe, purified MHC II
[2] = target: HLA-DR DRB1*1101 (human); test: competition with 125I probe, purified MHC II
[3] = target: HLA-DR DRB1*0901 (human); test: competition with 125I probe, purified MHC II
[4] = target: HLA-DR DRB1*0802 (human); test: competition with 125I probe, purified MHC II
[5] = target: HLA-DR molecule DRB1*1501 (human); test: competition vs 125I probe, purified HLA
[6] = target: HLA-DR molecule DRB1*1302 (human); test: competition vs 125I probe, purified HLA
[7] = target: HLA-DR molecule DRB1*0301 (human); test: competition vs 125I probe, purified HLA
[8] = target: HLA-DR molecule DRB1*0405 (human); test: competition vs 125I probe, purified HLA
[9] = target: HLA-DR molecule DRB1*0901 (human); test: competition vs 125I probe, purified HLA
[10] = target: HLA-DR molecule DRB1*0701 (human); test: competition vs 125I probe, purified HLA
[11] = target: HLA-DR molecule DRB1*1101 (human); test: competition vs 125I probe, purified HLA
[12] = target: HLA-DR molecule DRB1*0404 (human); test: competition vs 125I probe, purified HLA
[13] = target: HLA-DR molecule DRB1*0101 (human); test: competition vs 125I probe, purified HLA
[14] = target: HLA-DR molecule DRB1*0401 (human); test: competition vs 125I probe, purified HLA
[15] = target: DRB1*1302 (human, UniProt P01903 26-216, limits assumed); test: competition vs 125I probe peptide, purified MHC II
[16] = target: DRB1*1101 (human, UniProt P01903 26-216, limits assumed); test: competition vs 125I probe peptide, purified MHC II
[17] = target: DRB1*0405 (human, UniProt P01903 26-216, limits assumed); test: competition vs 125I probe peptide, purified MHC II
[18] = target: DRB1*0101 (human, UniProt P01903 26-216, limits assumed); test: competition vs 125I probe peptide, purified MHC II
[19] = target: DRB1*0701 (human, UniProt P01903 26-216, limits assumed); test: competition vs 125I probe peptide, purified MHC II

B2: EPO 101 analog GARSLTTLLRALGAQ (peptide)
peptide: GARSLTTLLRALGAQ
IC50 [5]: 282 nM
IC50 [6]: 4630 nM
IC50 [7]: 19500 nM

B7: EPO 101 analog GLRDLTTLLRALGAQ (peptide)
peptide: GLRDLTTLLRALGAQ
IC50 [6]: 4360 nM
IC50 [7]: 4460 nM
IC50 [9]: 2530 nM
IC50 [11]: 0.99 nM

B8: EPO 101 analog GLRSLDTLLRALGAQ (peptide)
peptide: GLRSLDTLLRALGAQ
IC50 [7]: 303 nM
IC50 [9]: 12300 nM

B13: EPO 101 analog GDRSLTTLLRALGAQ (peptide)
peptide: GDRSLTTLLRALGAQ
IC50 [6]: 6820 nM
IC50 [8]: 8720 nM

B14: DTFRKLFGVYSNFLR (peptide)
peptide: DTFRKLFGVYSNFLR
IC50 [15]: 467 nM

B15: DTFRKLFRVRSNFLR (peptide)
peptide: DTFRKLFRVRSNFLR
IC50 [16]: 0.91 nM

B16: DTFRKLFRDYSNFLR (peptide)
peptide: DTFRKLFRDYSNFLR
IC50 [17]: 966 nM
IC50 [18]: 196 nM
IC50 [19]: 17700 nM

B17: DTFRKLFRVGSNFLR (peptide)
peptide: DTFRKLFRVGSNFLR
IC50 [16]: 2.3 nM

Now from value to binder:

IC50 [1]: 828 nM
IC50 [2]: 169 nM
IC50 [3]: 8900 nM
IC50 [4]: 6320 nM
B1: Hu MBP 33-52 (peptide)
peptide: RDTGILDSIGRFFGGDRGAP

IC50 [8]: 706 nM
B3: EPO 101 analog GLRSLTTLRRALGAQ (peptide)
peptide: GLRSLTTLRRALGAQ

IC50 [6]: 5140 nM
IC50 [9]: 3230 nM
B4: EPO 101 analog GLRSLTTLDRALGAQ (peptide)
peptide: GLRSLTTLDRALGAQ

IC50 [10]: 6070 nM
IC50 [11]: 0.53 nM
B5: EPO 101 analog GLRSLTTLHRALGAQ (peptide)
peptide: GLRSLTTLHRALGAQ

IC50 [11]: 0.58 nM
B6: EPO 101 analog GLRSLTTLKRALGAQ (peptide)
peptide: GLRSLTTLKRALGAQ

IC50 [12]: 67 nM
B9: EPO 101 analog GLRSLTTDLRALGAQ (peptide)
peptide: GLRSLTTDLRALGAQ

IC50 [13]: 83 nM
IC50 [8]: 8780 nM
B10: EPO 101 analog GLRSLTTLQRALGAQ (peptide)
peptide: GLRSLTTLQRALGAQ

IC50 [6]: 6050 nM
IC50 [14]: 345 nM
B11: EPO 101 analog GQRSLTTLLRALGAQ (peptide)
peptide: GQRSLTTLLRALGAQ

IC50 [6]: 697 nM
IC50 [9]: 2640 nM
IC50 [14]: 2510 nM
IC50 [11]: 4.6 nM
B12: EPO 101 analog GLRSLTGLLRALGAQ (peptide)
peptide: GLRSLTGLLRALGAQ

One block for each binder: values may come before it.
